Assay results: US10137110B2, “1-cyclohexyl-2-phenylaminobenzimidazoles as mIDH1 inhibitors for the treatment of tumors” (Bayer Pharma Aktiengesellschaft, priority 2014, dated 2018)

By UniProt entry, the sequences of proteins in these tests, tags left out.
UniProt O75874, whole entry R132H: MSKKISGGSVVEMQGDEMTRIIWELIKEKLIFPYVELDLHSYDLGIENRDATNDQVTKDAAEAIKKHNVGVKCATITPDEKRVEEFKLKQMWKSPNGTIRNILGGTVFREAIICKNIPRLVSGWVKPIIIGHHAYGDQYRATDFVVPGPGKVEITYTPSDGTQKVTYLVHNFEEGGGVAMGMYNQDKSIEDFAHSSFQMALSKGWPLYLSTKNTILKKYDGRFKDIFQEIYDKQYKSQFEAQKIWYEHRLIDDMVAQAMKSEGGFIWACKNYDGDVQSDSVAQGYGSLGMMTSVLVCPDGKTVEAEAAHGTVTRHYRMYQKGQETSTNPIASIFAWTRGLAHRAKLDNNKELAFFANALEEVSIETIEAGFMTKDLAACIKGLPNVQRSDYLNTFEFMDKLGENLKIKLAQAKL

Target: IDH1 R132H enzyme (Homo sapiens (Human), UniProt O75874, R132H)
Assay: Mutant IDH1 R132H biochemical assay
Conditions: NADPH consumption, luminescent readout; 1.5 nM enzyme, 250 μM α-KG, 1 μM NADPH, 30 minutes, 32° C.; test range 0.002-10 μM
Experimental: Mutant IDH1 R132H Biochemical Assay
mIDH1 catalyzes the NADPH-dependent reduction of alpha-ketoglutarate (α-KG) to (2R)-2-hydroxyglutarate (2-HG). NADPH consumption was measured by luminescent readout.
The biochemical reactions were performed at 32° C. in 384-well plates using a reaction volume of 41 μl and the following assay buffer conditions: 50 mM Tris pH 7.5, 100 mM NaCl, 20 mM MgCl2, 0.05% BSA, 0.01% Brij, 1 μM NADPH, and 250 μM α-KG. The IDH1 R132H enzyme was used in a final concentration of 1.5 nM. Test compounds were used in a concentration range between 0.002 and 10 μM. The final DMSO concentration was 2.4%.
The reaction was incubated for 30 minutes, then 40 μl of detection mix (0.75 μg/ml Luciferase, 0.02 U/ml Oxidoreductase, 4 μg/ml FMN, 2 μl/ml Decanal/Ethanol, 50 mM Tris pH 7.5, 0.5% Glycerin, 0.01% Tween-20, 0.05% BSA) was added. Luminescence was measured on a luminescent reader (10 seconds measuring time, 1 second integration period, 30% sensitivity). The decrease in luminescence is proportional to mIDH1 activity. IC50 values are determined by interpolation from plots of relative luminescence versus inhibitor concentration.

| IC50 | Structure (SMILES) |
| --- | --- |
| ≥ 10000 nM | COc1c(F)cc(-c2ccc3c(c2)nc(Nc2ccc(OC(F)(F)F)cc2)n3[C@H]2C[C@@H](C)CC(C)(C)C2)cc1F (racemic) [Example 2-32, (±) 5-(3,5-difluoro-4-methoxyphenyl)-N-[4-(trifluoromethoxy)phenyl]-1-[(cis)-3,3,5-trimethylcyclohexyl]-1H-benzimidazol-2-amine] |
| 390 nM | Cc1nnc(-c2ccc3c(c2)nc(Nc2ccc(OC(F)(F)F)cc2)n3[C@H]2C[C@@H](C)CC(C)(C)C2)o1 (racemic) [Example 2-31, (±) 5-(5-methyl-1,3,4-oxadiazol-2-yl)-N-[4-(trifluoromethoxy)phenyl]-1-[(cis)-3,3,5-trimethylcyclohexyl]-1H-benzimidazol-2-amine] |
